Test results published in ChEMBL document CHEMBL1938329, “The discovery of potent, selective, and orally active pyrazoloquinolines as PDE10A inhibitors for the treatment of Schizophrenia” (Bioorg Med Chem Lett, 2012).

Amino acid sequences for entries named in this document (tags omitted). A change or cut given only in a name is not applied to a line headed by its entry.
UniProt Q9Y233: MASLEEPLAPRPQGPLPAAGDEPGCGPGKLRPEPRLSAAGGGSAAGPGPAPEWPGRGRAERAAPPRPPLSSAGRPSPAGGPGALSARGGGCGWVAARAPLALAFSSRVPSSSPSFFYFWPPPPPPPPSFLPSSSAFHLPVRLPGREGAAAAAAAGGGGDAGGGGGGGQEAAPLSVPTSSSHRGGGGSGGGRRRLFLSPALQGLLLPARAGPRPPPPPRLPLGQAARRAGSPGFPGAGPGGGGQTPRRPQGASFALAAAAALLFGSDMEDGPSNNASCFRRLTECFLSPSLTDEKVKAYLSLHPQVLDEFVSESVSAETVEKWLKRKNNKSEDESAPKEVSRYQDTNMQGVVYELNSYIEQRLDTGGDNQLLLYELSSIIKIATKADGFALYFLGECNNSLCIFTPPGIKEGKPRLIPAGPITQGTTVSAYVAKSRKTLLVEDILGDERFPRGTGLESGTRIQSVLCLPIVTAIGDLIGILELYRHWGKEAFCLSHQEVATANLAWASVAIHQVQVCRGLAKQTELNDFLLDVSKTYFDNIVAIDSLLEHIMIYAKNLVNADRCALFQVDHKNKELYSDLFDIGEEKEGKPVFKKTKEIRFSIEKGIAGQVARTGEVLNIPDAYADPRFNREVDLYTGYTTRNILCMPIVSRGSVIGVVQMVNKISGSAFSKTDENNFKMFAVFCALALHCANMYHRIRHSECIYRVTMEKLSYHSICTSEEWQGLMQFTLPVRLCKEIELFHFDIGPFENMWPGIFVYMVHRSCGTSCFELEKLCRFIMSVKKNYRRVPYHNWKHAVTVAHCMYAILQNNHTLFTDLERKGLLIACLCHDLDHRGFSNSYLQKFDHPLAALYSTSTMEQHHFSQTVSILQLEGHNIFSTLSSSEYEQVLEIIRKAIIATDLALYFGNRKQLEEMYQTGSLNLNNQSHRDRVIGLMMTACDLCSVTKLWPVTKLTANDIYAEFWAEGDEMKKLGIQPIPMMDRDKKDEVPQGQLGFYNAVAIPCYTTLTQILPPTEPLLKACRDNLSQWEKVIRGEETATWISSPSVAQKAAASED

What was measured:
Homo sapiens [1] = species: Homo sapiens; test: Selectivity ratio of Ki for recombinant human PDE1 to Ki for recombinant human PDE10A
In short: (§1)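 Recombinant human PDE enzymes (PDE1–11) were tested in a scintillation proximity assay with [³H]cAMP as substrate, measuring hydrolysis of cAMP to AMP. Ki values are means of at least two experiments. The ratio is the Ki for each off-target PDE divided by the PDE10A Ki.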

Homo sapiens [2] = species: Homo sapiens; test: Selectivity ratio of Ki for recombinant human PDE2 to Ki for recombinant human PDE10A; in short: as §1
Homo sapiens [3] = species: Homo sapiens; test: Selectivity ratio of Ki for recombinant human PDE8 to Ki for recombinant human PDE10A; in short: as §1
Homo sapiens [4] = species: Homo sapiens; test: Selectivity ratio of Ki for recombinant human PDE7 to Ki for recombinant human PDE10A; in short: as §1
Homo sapiens [5] = species: Homo sapiens; test: Selectivity ratio of Ki for recombinant human PDE6 to Ki for recombinant human PDE10A; in short: as §1
Homo sapiens [6] = species: Homo sapiens; test: Selectivity ratio of Ki for recombinant human PDE4 to Ki for recombinant human PDE10A; in short: as §1
Homo sapiens [7] = species: Homo sapiens; test: Selectivity ratio of Ki for recombinant human PDE11 to Ki for recombinant human PDE10A; in short: as §1
Homo sapiens [8] = species: Homo sapiens; test: Selectivity ratio of Ki for recombinant human PDE5A to Ki for recombinant human PDE10A; in short: as §1
Homo sapiens [9] = species: Homo sapiens; test: Selectivity ratio of Ki for recombinant human PDE9 to Ki for recombinant human PDE10A; in short: as §1
[10] = target: cAMP and cAMP-inhibited cGMP 3',5'-cyclic phosphodiesterase 10A (Homo sapiens, UniProt Q9Y233); test: Inhibition of recombinant human PDE10A using [3H]cAMP as substrate by scintillation proximity assay
In short: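 Scintillation proximity assay with [³H]cAMP as substrate, measuring hydrolysis of cAMP to AMP by recombinant human PDEs 1–11. Ki values are means of at least two experiments.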

Homo sapiens [11] = species: Homo sapiens; test: Selectivity ratio of Ki for recombinant human PDE3 to Ki for recombinant human PDE10A; in short: as §1

COc1cc(C)c2nc3[nH]nc(C)c3c(N3CCNCC3)c2c1
Ratio Ki (Homo sapiens [1]): > 70 | Ratio Ki (Homo sapiens [2]): > 70 | Ratio Ki (Homo sapiens [3]): > 70 | Ratio Ki (Homo sapiens [4]): > 70 | Ratio Ki (Homo sapiens [5]): > 70 | Ratio Ki (Homo sapiens [6]): > 70 | Ratio Ki (Homo sapiens [7]): > 70 | Ratio Ki (Homo sapiens [8]): > 70 | Ratio Ki (Homo sapiens [9]): > 70 | IC50 [10]: 0.858 µM | Ki [10]: 0.011 µM | Ratio Ki (Homo sapiens [11]): > 70
